Where “and” joins values, the source holds several entries; their conditions need not be identical. Equal entries are not always repeated. Only a part is listed here, and it is no random draw. Inconclusive results are not listed. Calls of active or inactive are those of the source. Unless noted, calls follow the shape of the dose curve; as a rule, active = well fitted curve in the direction sought with a large enough effect in the repeat runs; inconclusive = weak or mixed curves; inactive = no such curve, though single readings can be large; an effect the other way counts as inactive or inconclusive.
What was measured:
[1] = qHTS assay to identify small molecule antagonists of the estrogen related receptor signaling pathway with the pleiotropic PPARgamma coactivator (PGC) from Tox21 10K library - cell viability counter screen (AID 1224840; active = well fitted cell-killing curve with a large enough effect in the repeat runs, not every such curve was filed as active; also: nearly all actives have a fitted effect of over 40% in size); settings: PGC/ERR reporter cells viability, CellTiter-Fluor, 17.5 h
In short: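 Fluorescence read-out of CellTiter-Fluor viability reagent, added after cells had been exposed to compound in DMSO for 17.5 h at 37 C; 30 min development at 37 C/5% CO2. Cells: PGC/ERR line, 2,000/well.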

The chains behind the UniProt entries cited, without tags or fusion partners.
UniProt P16473, whole entry: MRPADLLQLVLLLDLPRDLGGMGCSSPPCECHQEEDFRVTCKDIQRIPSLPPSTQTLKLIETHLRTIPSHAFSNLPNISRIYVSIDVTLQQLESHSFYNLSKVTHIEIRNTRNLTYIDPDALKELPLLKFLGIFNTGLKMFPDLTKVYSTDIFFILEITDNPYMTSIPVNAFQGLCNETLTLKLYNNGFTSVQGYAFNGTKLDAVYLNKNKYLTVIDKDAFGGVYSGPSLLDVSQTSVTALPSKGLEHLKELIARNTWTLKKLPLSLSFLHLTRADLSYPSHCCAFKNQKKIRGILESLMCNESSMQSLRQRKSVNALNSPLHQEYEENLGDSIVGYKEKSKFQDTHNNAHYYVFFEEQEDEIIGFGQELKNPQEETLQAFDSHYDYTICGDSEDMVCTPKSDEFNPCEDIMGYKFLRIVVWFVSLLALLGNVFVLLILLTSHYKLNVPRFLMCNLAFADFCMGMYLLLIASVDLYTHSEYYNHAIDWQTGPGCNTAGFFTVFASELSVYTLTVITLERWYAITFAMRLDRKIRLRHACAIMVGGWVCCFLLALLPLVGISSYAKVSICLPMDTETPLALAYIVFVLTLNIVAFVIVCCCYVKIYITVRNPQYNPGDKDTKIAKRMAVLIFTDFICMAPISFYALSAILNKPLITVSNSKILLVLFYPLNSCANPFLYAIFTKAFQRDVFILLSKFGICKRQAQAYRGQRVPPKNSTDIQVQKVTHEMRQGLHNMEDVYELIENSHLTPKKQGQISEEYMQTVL
UniProt Q14994, whole entry: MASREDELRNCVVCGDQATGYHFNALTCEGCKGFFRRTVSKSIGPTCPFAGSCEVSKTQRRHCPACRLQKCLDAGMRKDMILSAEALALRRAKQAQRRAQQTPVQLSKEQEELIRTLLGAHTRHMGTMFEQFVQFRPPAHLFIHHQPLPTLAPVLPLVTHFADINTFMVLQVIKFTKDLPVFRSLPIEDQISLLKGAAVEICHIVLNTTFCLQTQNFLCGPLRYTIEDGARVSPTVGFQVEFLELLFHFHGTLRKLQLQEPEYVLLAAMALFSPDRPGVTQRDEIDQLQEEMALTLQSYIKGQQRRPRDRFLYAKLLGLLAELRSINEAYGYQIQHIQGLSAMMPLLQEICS

[2] = molecular target: Thyrotropin receptor (Homo sapiens) (UniProt P16473); experiment: qHTS assay to identify small molecule agonists of the thyroid stimulating hormone receptor (TSHR) signaling pathway (AID 1224843; calls by dose curve; also: nearly all actives have a fitted effect of over 45% in size); settings: TSHR-HEK293 cells, cAMP HTRF, agonist mode, 30 min
[3] = qHTS assay to identify small molecule agonists of the hypoxia (HIF-1) signaling pathway - cell viability counter screen (AID 1224844; calls by dose curve; also: nearly all actives have a fitted effect of over 50% in size); settings: HRE-bla ME-180 viability, CellTiter-Glo luminescence, 17 h
In short: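 CellTiter-Glo luminescence read-out, 30 min RT, taken in the same wells as the beta-lactamase HRE reporter assay; HRE-bla ME-180 cells, 0.5% dialyzed FBS, 17 hr compound treatment at 37C, 5% CO2.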

[4] = qHTS assay to identify small molecule agonists of H2AX (AID 1224845; active = well fitted activation curve with a large enough effect in the signal ratio in the repeat runs, not every such curve was filed as active; the % refers to the signal ratio); settings: CHO-K1 phospho-H2AX Ser139 HTRF, 3 h
In short: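 Wild-type CHO-K1 cells, plated overnight, exposed 3hr at 37C to 15 concentrations (0.76% DMSO final). Lysed, then HTRF anti-pH2AX (S139) cryptate and anti-H2AX-d2 antibodies, 24 hr room temperature; 665/620 nm emission read.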

[5] = qHTS assay to identify small molecule agonists of the hypoxia (HIF-1) signaling pathway (AID 1224846; active = well fitted activation curve with a large enough effect in the signal ratio in the repeat runs, not every such curve was filed as active; the % refers to the signal ratio); settings: HRE-bla ME-180 cells, beta-lactamase ratio, 17 h
In short: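 Beta-lactamase FRET read-out (CCF4-AM substrate) from ME-180 cells carrying an HRE-driven bla reporter, after 17 hrs compound exposure at 37C/5% CO2. Cells were seeded at 2,000 per well in 0.5% dialyzed FBS medium and preincubated 5 hrs.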

[6] = qHTS assay to identify small molecule antagonists of the estrogen related receptor (ERR) signaling pathway from Tox21 library (AID 1224848); settings: ERR reporter cell line, luciferase antagonist mode, 18 h; series mostly up to 92.4 µM; also: nearly all actives have a fitted effect of over 50% in size
In short: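 Compounds dissolved in DMSO are pin-transferred onto ERR reporter cells (2,000 per well) that have settled for 6 h at 37 C. Plates then incubate 18 h at 37 C before ONE-Glo luciferase reagent and a luminescence read 30 min later.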

[7] = qHTS assay to identify small molecule agonists of the estrogen related receptor (ERR) signaling pathway from Tox21 library (AID 1224849; calls by dose curve; also: nearly all actives have a fitted effect of over 15% in size); settings: ERR reporter cell line, ONE-Glo luciferase, 18 h
In short: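 Luminescence readout (ONE-Glo, 30 min RT) after 18 h compound exposure at 37 C of NTP-supplied ERR reporter cells; cells were plated 6 h before compound addition by pin tool.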

[8] = qHTS RealTime-Glo MT Cell Viability Assay in HEK293 cells - 32 hour (AID 1224868); settings: RealTime-Glo luminescence; also: top concentration of the series differs between compounds; nearly all actives have a fitted effect of over 50% in size
In short: (§1)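 Homogeneous bioluminescent viability format in HEK293 cells (600 cells/well). Following 5 h at 37 C/5% CO2, 23 nL compound was pintooled; the signal was measured repeatedly during 40 h incubation.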

[9] = A CellTox Green Cytotoxicity Assay to monitor cytotoxicity in HEK293 cells - 0 hour (AID 1224869); settings: CellTox Green fluorescence; series mostly up to 76.8 µM; also: nearly all actives have a fitted effect of over 50% in size
In short: (§2)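 Read-out: fluorescence of a cell-impermeant cyanine dye staining DNA of dead cells, proportional to cytotoxicity. HEK293, 600 cells/well with reagent, compound (23 nL DMSO) added after 5 h; reads at 0, 8, 16, 24, 32, 40 h.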

[10] = qHTS RealTime-Glo MT Cell Viability Assay in HepG2 cells - 40 hour (AID 1224870); settings: RealTime-Glo luminescence; also: nearly all actives have a fitted effect of over 50% in size
In short: (§3)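 HepG2 cells (600/well) mixed with RealTime-Glo MT reagent, settled 5 h at 37 C/5% CO2 before compound addition. Nonlytic NanoLuc luminescence from viable-cell prosubstrate reduction read repeatedly during 40 h treatment at 37 C.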

[11] = A CellTox Green Cytotoxicity Assay to monitor cytotoxicity in HepG2 cells - 16 hour (AID 1224876); settings: CellTox Green fluorescence; series mostly up to 76.8 µM; also: nearly all actives have a fitted effect of over 45% in size
In short: (§4)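 HepG2, 600 cells/well premixed w/ CellTox Green; 5 h settle, 37 C/5% CO2; pintool cpd add (DMSO); 37 C, 40 h; fluorescence read at 0, 8, 16, 24, 32, 40 h.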

[12] = qHTS RealTime-Glo MT Cell Viability Assay in HepG2 cells - 32 hour (AID 1224877); settings: RealTime-Glo luminescence; also: nearly all actives have a fitted effect of over 55% in size
In short: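 Cell number in HepG2 cultures estimated from NanoLuc luminescence generated by metabolic reduction of a prosubstrate by living cells. The homogeneous, nonlytic format allowed repeated reads at 0, 8, 16, 24, 32 and 40 h of compound exposure.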

[13] = A CellTox Green Cytotoxicity Assay to monitor cytotoxicity in HepG2 cells - 24 hour (AID 1224878); settings: CellTox Green fluorescence; series mostly up to 76.8 µM; also: nearly all actives have a fitted effect of over 45% in size
In short: as §4

[14] = A CellTox Green Cytotoxicity Assay to monitor cytotoxicity in HepG2 cells - 40 hour (AID 1224879); settings: CellTox Green fluorescence; series mostly up to 76.8 µM; also: nearly all actives have a fitted effect of over 40% in size
In short: as §4

[15] = qHTS RealTime-Glo MT Cell Viability Assay in HEK293 cells - 0 hour (AID 1224880); settings: RealTime-Glo luminescence; also: top concentration of the series differs between compounds; nearly all actives have a fitted effect of over 45% in size
In short: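 Luminescence readout at each listed time point; HEK293, 600 cells/well, RealTime-Glo MT reagent added with cells; compounds pinned (23 nL in DMSO) after 5 h at 37 C; continuous culture at 37 C.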

[16] = A CellTox Green Cytotoxicity Assay to monitor cytotoxicity in HEK293 cells - 32 hour (AID 1224881); settings: CellTox Green fluorescence; series mostly up to 76.8 µM; also: nearly all actives have a fitted effect of over 40% in size
In short: as §2

[17] = molecular target: Nuclear receptor subfamily 1 group I member 3 (Homo sapiens) (UniProt Q14994); experiment: qHTS assay to identify small molecule agonists of the constitutive androstane receptor (CAR) signaling pathway (AID 1224839); settings: HepG2 hCAR CYP2B6-luciferase, agonist mode, 24 h; series mostly up to 92.4 µM;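 also: HepG2 cells stably carrying human CAR and a CYP2B6 luciferase reporter; nearly all actives have a fitted effect of over 15% in size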
[18] = qHTS assay to identify small molecule antagonists of the estrogen related receptor signaling pathway with the pleiotropic PPARgamma coactivator (PGC) from Tox21 10K library (AID 1224841; call rule not given here); settings: PGC/ERR reporter cell line, ONE-Glo luciferase, 18 h; series mostly up to 92.4 µM
[19] = qHTS RealTime-Glo MT Cell Viability Assay in HEK293 cells - 16 hour (AID 1224872); settings: RealTime-Glo luminescence; at 76.8 µM (top of the series) unless noted
In short: as §1

[20] = qHTS RealTime-Glo MT Cell Viability Assay in HepG2 cells - 8 hour (AID 1224873); settings: RealTime-Glo luminescence; at 76.8 µM (top of the series) unless noted; also: nearly all actives have a fitted effect of over 55% in size
In short: as §3

[21] = at 76.8 µM (top of the series) unless noted
% is scaled to controls: 0 for no effect and ±100 for the full control effect.

OCCSCCO
inactive: viability change, negative = cytotoxic ([1]; at 42.5 µM (top of the series)) 11.3% | viability change, negative = cytotoxic ([1]; at 92.4 µM (top of the series)) 2.62% | activation ([2]; at 42.5 µM (top of the series)) -3.74% | activation ([2]; at 92.4 µM (top of the series)) 4.67% | activity change, negative = cytotoxicity ([3]; at 35.3 µM (top of the series)) 1.69% | activity change, negative = cytotoxicity ([3]; at 76.8 µM (top of the series)) -1.67% | activation (H2AX phosphorylation) ([4]; at 70.9 µM (top of the series)) -0.34% | activation (H2AX phosphorylation) ([4]; at 154 µM (top of the series)) -1.6% | activation ([5]; at 35.5 µM (top of the series)) -0.645% | activation ([5]; at 76.8 µM (top of the series)) -0.127% | Potency [6] | activity change, positive = activation ([7]; at 42.5 µM (top of the series)) 7.72% | activity change, positive = activation ([7]; at 92.4 µM (top of the series)) -3.47% | activity change, negative = cytotoxic ([8]; at 35.3 µM (top of the series)) -1.82% | activity change, negative = cytotoxic ([8]; at 76.8 µM (top of the series)) -7.62% | Potency [9] | activity change, negative = cytotoxic ([10]; at 35.3 µM (top of the series)) 3.57% | activity change, negative = cytotoxic ([10]; at 76.8 µM (top of the series)) -1.08% | Potency [11] | activity change, negative = cytotoxic ([12]; at 35.3 µM (top of the series)) -0.78% | activity change, negative = cytotoxic ([12]; at 76.8 µM (top of the series)) -0.78% | Potency [13] | Potency [14] | activity change, negative = cytotoxicity ([15]; at 35.3 µM (top of the series)) 3.61% | activity change, negative = cytotoxicity ([15]; at 76.8 µM (top of the series)) 0.773% | Potency [16]

Cc1ccc([N+](=O)[O-])cc1[N+](=O)[O-]
inactive: Potency [17] | viability change, negative = cytotoxic ([1]; at 92.4 µM (top of the series)) 2.72% and 4.87% | Potency [18] | activity change, negative = cytotoxicity [3, 21] 7.7% and -7.85% | activation (H2AX phosphorylation) ([4]; at 154 µM (top of the series)) 0.454% | activation ([5]; at 76.8 µM (top of the series)) -1.1% and -1.05% | Potency [6] | activity change, positive = activation ([7]; at 92.4 µM (top of the series)) 0.906% and 4.61% | activity change, negative = cytotoxic ([8]; at 76.8 µM (top of the series)) 1.34% and 4.88% | Potency [9] | activity change, negative = cytotoxic [10, 21] -4.97% and 4.85% | activity change, negative = cytotoxicity [19] 1.06% and -1.9% | viability change, negative = cytotoxic [20] 1.82% and -0.267% | Potency [11] | Potency [13] | Potency [14] | activity change, negative = cytotoxicity [15, 21] 2.76% and 1.21% | Potency [16]

COc1ccc([N+](=O)[O-])cc1[N+](=O)[O-]
inactive: Potency [17] | viability change, negative = cytotoxic ([1]; at 92.4 µM (top of the series)) -0.488% | Potency [18] | activation ([2]; at 92.4 µM (top of the series)) 8.23% | activity change, negative = cytotoxicity [3, 21] 1.48% | activation (H2AX phosphorylation) ([4]; at 154 µM (top of the series)) -3.94% | activation ([5]; at 76.8 µM (top of the series)) 0.628% | Potency [6] | activity change, positive = activation ([7]; at 92.4 µM (top of the series)) -3.37% | activity change, negative = cytotoxic ([8]; at 76.8 µM (top of the series)) 0.515% | Potency [9] | activity change, negative = cytotoxic [10, 21] 2.25% | activity change, negative = cytotoxicity [19] 5.11% | viability change, negative = cytotoxic [20] -20% | Potency [11] | activity change, negative = cytotoxic ([12]; at 76.8 µM (top of the series)) -2.22% | Potency [13] | Potency [14] | activity change, negative = cytotoxicity [15, 21] 13.4% | Potency [16]

CCN(CC)CCCl
inactive: viability change, negative = cytotoxic ([1]; at 92.4 µM (top of the series)) -18% | Potency [18] | activity change, negative = cytotoxicity [3, 21] -14.1% | activation ([5]; at 76.8 µM (top of the series)) -0.323% | Potency [6] | activity change, positive = activation ([7]; at 92.4 µM (top of the series)) 10.4% | activity change, negative = cytotoxic ([8]; at 76.8 µM (top of the series)) 6.7% | Potency [9] | activity change, negative = cytotoxic [10, 21] -2.38% | activity change, negative = cytotoxicity [19] 3.34% | viability change, negative = cytotoxic [20] 1.19% | Potency [11] | activity change, negative = cytotoxic ([12]; at 76.8 µM (top of the series)) -1.31% | Potency [13] | Potency [14] | activity change, negative = cytotoxicity [15, 21] -2.89% | Potency [16]

Cc1c([N+](=O)[O-])cccc1[N+](=O)[O-]
inactive: viability change, negative = cytotoxic ([1]; at 92.4 µM (top of the series)) 0.736% and 5.27% | Potency [18] | activation ([2]; at 92.4 µM (top of the series)) -1.1% | activity change, negative = cytotoxicity [3, 21] 2.65% and 8.15% | activation (H2AX phosphorylation) ([4]; at 154 µM (top of the series)) -2.33% and -2.44% | activation ([5]; at 76.8 µM (top of the series)) 0.374% and -0.938% | Potency [6] | activity change, positive = activation ([7]; at 92.4 µM (top of the series)) -0.169% and 1.48% | Potency [9] | activity change, negative = cytotoxic [10, 21] 6.04% and 0.712% | activity change, negative = cytotoxicity [19] -2.66% and 10.1% | viability change, negative = cytotoxic [20] 2.67% and 2.76% | Potency [11] | activity change, negative = cytotoxic ([12]; at 76.8 µM (top of the series)) 2.13% and 3.46% | Potency [13] | Potency [14] | activity change, negative = cytotoxicity [15, 21] -0.0348% and 19% | Potency [16]
